{
  "sequences": {"note": "Amino acid sequences for entries named in this document (tags omitted). Residues count along the entry.", "UniProt P15328, 25-234": "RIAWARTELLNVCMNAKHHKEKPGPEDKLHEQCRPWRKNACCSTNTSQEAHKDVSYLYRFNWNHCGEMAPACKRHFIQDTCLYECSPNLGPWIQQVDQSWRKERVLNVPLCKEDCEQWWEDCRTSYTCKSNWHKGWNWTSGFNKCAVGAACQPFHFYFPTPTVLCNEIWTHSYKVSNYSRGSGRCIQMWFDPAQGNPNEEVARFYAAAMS"},
  "source": "patent US9650440B2",
  "about": "“Monoclonal antibodies that specifically block biological activity of a tumor antigen” (Morphotek, Inc., priority 2004, dated 2017)",
  "molecules": {"B1": {"name": "anti-FR-α antibody: humanized anti-FR-α antibody, heavy chain SEQ ID NO:5 and light chain SEQ ID NO:2, expressed in CHO-K1 cells (antibody)", "heavy": "EVQLVESGGGVVQPGRSLRLSCSASGFTFSGYGLSWVRQAPGKGLEWVAMISSGGSYTYYADSVKGRFAISRDNAKNTLFLQMDSLRPEDTGVYFCARHGDDPAWFAYWGQGTPVTVSSASTKGPSVFPLAPSSKSTSGGTAALGCLVKDYFPEPVTVSWNSGALTSGVHTFPAVLQSSGLYSLSSVVTVPSSSLGTQTYICNVNHKPSNTKVDKKV[human IgG1 Fc not written out]", "light": "DIQLTQSPSSLSASVGDRVTITCSVSSSISSNNLHWYQQKPGKAPKPWIYGTSNLASGVPSRFSGSGSGTDYTFTISSLQPEDIATYYCQQWSSYPYMYTFGQGTKVEIKRTVAAPSVFIFPPSDEQLKSGTASVVCLLNNFYPREAKVQWKVDNALQSGNSQESVTEQDSKDSTYSLSSTLTLSKADYEKHKVYACEVTHQGLSSPVTKSFNRGEC"}},
  "key": {"[1]": {"biological_target": "T1, purified FR-α (Homo sapiens, UniProt P15328)", "T1 construct": "The soluble, secreted form of the antigen will be purified from the serum-free culture supernatant of target cells; endogenous in cells", "test": "Surface plasmon resonance binding of antibody to purified FR-α", "description": "Kinetic and steady-state binding constants between the antibody of the invention and purified FR-α were determined by surface plasmon resonance spectroscopy. On-rate (ka) was determined to be (2.25±0.02) M^−1s^−1, and off-rate (kd) was determined to be (5.02±0.08) s^−1.\nSurface plasmon resonance spectroscopy relies on the short range (˜150 nm) interaction of the electrical field (evanescent wave) generated by photons under conditions of total internal reflection (TIR) with electrons (surface plasmons) in a conductive film at the boundary between two media of differing refractive indices, whereby one of the media is a thin gold layer (conductive film) coated with an alkane linker coupled to CM-dextran. The CM-dextran surface, which forms an extended hydrogel in solution, projecting roughly 100-150 nm into the flowcell, may be derivatized further with a ligand of choice by covalent immobilization to the carboxyl groups present on the CM-dextran layer. The angle necessary to allow the evanescent wave to interact with the gold layer will depend on the angle necessary to observe TIR, which in turn depends on the thickness or mass at the surface of the chip. The instrument thus allows for observation of the change in mass at the surface of the chip over time, as would be observed when an analyte which interacts with the immobilized ligand is injected into the flowcell. If injection of analyte is followed by injection of buffer, one can follow both the association (during injection of the analyte) and dissociation phases (during buffer injection) of the binding. Kinetic on-rates (ka) and off-rates (kd), as well as steady-state equilibrium constants (Ka and Kd) can thus be extrapolated.\nThe soluble, secreted form of the antigen will be purified from the serum-free culture supernatant of target cells by chromatography through Phenyl Sepharose (high sub), followed by ion exchange on S Sepharose Fast Flow. Briefly, culture supernatant containing secreted antigen will be loaded onto the Phenyl Sepharose (high sub) column in the absence of additional salts. […]"}, "[2]": {"test_system": "SKOV-3", "test": "Alternative ADCC assay, ^51Cr release, SKOV-3 target cells", "assay_type": "cell-based, human", "details": "for SKOV-3 Percentage of ^51Cr release: 10 micrograms/milliliter, 18 hours; for SKOV-3 Percentage of specific ^51Cr release: release with antibody minus without antibody", "description": "(§1) In an alternative ADCC assay, the ability of antibody to produce ADCC was evaluated using SKOV-3, IGROV-1, and 1205 Lu (negative control) as target cells, and PBMCs from normal blood donors. Antibody was tested at a concentration of 10 micrograms/milliliter. Donor PBMCs used as effector cells were thawed and kept overnight in medium (IMDM supplemented with 10% FCS). The cells were resuspended in medium at a concentration of 10^7 cells/milliliter. The tumor cells used as target cells were detached from the culture flask and 10^6 cells in 100 microliters FCS were labeled with 100 uCi (3.7 MBq) ^51Cr (Amersham, Buckinghamshire, UK) for 2 hours at 37° C. Cells were washed thrice with 5 milliliters medium and resuspended in medium at a concentration of 10^5 cells/milliliter. Fifty microliters of the tumor cells were seeded in V bottom 96-well plates. Cells were then incubated with 50 microliters medium containing the test antibody or control antibody. After 30 minutes incubation at 37° C., 50 microliters of the PBMCs were seeded in V bottom 96 well plates at various target-effector cell ratios (1:0, 1:25, 1:50, and 1:100) and the plates were further incubated for 18hours at 37° C. The release of ^51Cr in the supernatant was determined in a LKB gamma-counter. Each measurement was carried out in triplicate. The percentage of release was defined as: % release=[(release−spontaneous release)/(maximal release−spontaneous release)]×100. The percentage of specific release was defined as: % specific ^51Cr release=% total ^51Cr release with antibody−% total ^51Cr release without antibody."}, "[3]": {"test_system": "IGROV-1", "test": "Alternative ADCC assay, ^51Cr release, IGROV-1 target cells", "assay_type": "cell-based, human", "details": "for IGROV-I Percentage of ^51Cr release: 10 micrograms/milliliter, 18 hours; for IGROV-I Percentage of specific ^51Cr release: release with antibody minus without antibody", "description": "as §1"}, "[4]": {"details": "surface plasmon resonance spectroscopy, purified FR-α"}, "[5]": {"details": "Patient 1 PBMCs, T:E ratio 1:25"}, "[6]": {"details": "Patient 1 PBMCs, T:E ratio 1:50"}, "[7]": {"details": "Patient 1 PBMCs, T:E ratio 1:100"}, "[8]": {"details": "Patient 2 PBMCs, T:E ratio 1:25"}, "[9]": {"details": "Patient 2 PBMCs, T:E ratio 1:50"}, "[10]": {"details": "Patient 2 PBMCs, T:E ratio 1:100"}},
  "data": [
    {"molecule": "B1", "values": [
      {"measurement": "antigen binding activity (dissociation constant)", "setting": "[1]; optimized, humanized anti-FR-α antibody, in words", "value": "low nanomolar"},
      {"measurement": "On-rate (ka)", "setting": "[1]; [4]", "value": "2.25 ± 0.02", "unit": "M⁻¹ s⁻¹"},
      {"measurement": "off-rate (kd)", "setting": "[1]; [4]", "value": "5.02 ± 0.08", "unit": "s⁻¹"},
      {"measurement": "ADCC killing of SKOV-3", "setting": "[2]; PBMCs as effector cells, in words", "value": "mediated killing of tumor cell line SKOV-3"},
      {"measurement": "SKOV-3 Percentage of ^51Cr release", "setting": "[2]; Patient 1 PBMCs, T:E ratio 1:0", "value": "2.0 ± 0.0", "unit": "%"},
      {"measurement": "SKOV-3 Percentage of specific ^51Cr release", "setting": "[2]; Patient 1 PBMCs, T:E ratio 1:0", "value": "0.7 ± 0.0", "unit": "%"},
      {"measurement": "SKOV-3 Percentage of ^51Cr release", "setting": "[2]; [5]", "value": "36.1 ± 1.4", "unit": "%"},
      {"measurement": "SKOV-3 Percentage of specific ^51Cr release", "setting": "[2]; [5]", "value": "30.8 ± 1.7", "unit": "%"},
      {"measurement": "SKOV-3 Percentage of ^51Cr release", "setting": "[2]; [6]", "value": "46.2 ± 1.0", "unit": "%"},
      {"measurement": "SKOV-3 Percentage of specific ^51Cr release", "setting": "[2]; [6]", "value": "39.4 ± 1.1", "unit": "%"},
      {"measurement": "SKOV-3 Percentage of ^51Cr release", "setting": "[2]; [7]", "value": "61.7 ± 0.2", "unit": "%"},
      {"measurement": "SKOV-3 Percentage of specific ^51Cr release", "setting": "[2]; [7]", "value": "53.7 ± 0.3", "unit": "%"},
      {"measurement": "SKOV-3 Percentage of ^51Cr release", "setting": "[2]; Patient 2 PBMCs, T:E ratio 1:0", "value": "−0.6 ± 0.0", "unit": "%"},
      {"measurement": "SKOV-3 Percentage of specific ^51Cr release", "setting": "[2]; Patient 2 PBMCs, T:E ratio 1:0", "value": "0.8 ± 0.0", "unit": "%"},
      {"measurement": "SKOV-3 Percentage of ^51Cr release", "setting": "[2]; [8]", "value": "31.2 ± 1.0", "unit": "%"},
      {"measurement": "SKOV-3 Percentage of specific ^51Cr release", "setting": "[2]; [8]", "value": "28.6 ± 1.0", "unit": "%"},
      {"measurement": "SKOV-3 Percentage of ^51Cr release", "setting": "[2]; [9]", "value": "43.5 ± 1.3", "unit": "%"},
      {"measurement": "SKOV-3 Percentage of specific ^51Cr release", "setting": "[2]; [9]", "value": "39.0 ± 1.4", "unit": "%"},
      {"measurement": "SKOV-3 Percentage of ^51Cr release", "setting": "[2]; [10]", "value": "56.0 ± 1.0", "unit": "%"},
      {"measurement": "SKOV-3 Percentage of specific ^51Cr release", "setting": "[2]; [10]", "value": "48.4 ± 1.5", "unit": "%"},
      {"measurement": "ADCC killing of IGROV-1", "setting": "[3]; PBMCs as effector cells, cell line sensitive to killing by PBMCs alone, in words", "value": "mediated killing of IGROV-1"},
      {"measurement": "IGROV-I Percentage of ^51Cr release", "setting": "[3]; Patient 1 PBMCs, T:E ratio 1:0", "value": "−4.1 ± 0.1", "unit": "%"},
      {"measurement": "IGROV-I Percentage of specific ^51Cr release", "setting": "[3]; Patient 1 PBMCs, T:E ratio 1:0", "value": "−1.1 ± 0.2", "unit": "%"},
      {"measurement": "IGROV-I Percentage of ^51Cr release", "setting": "[3]; [5]", "value": "70.2 ± 1.3", "unit": "%"},
      {"measurement": "IGROV-I Percentage of specific ^51Cr release", "setting": "[3]; [5]", "value": "55.3 ± 4.4", "unit": "%"},
      {"measurement": "IGROV-I Percentage of ^51Cr release", "setting": "[3]; [6]", "value": "66.8 ± 7.1", "unit": "%"},
      {"measurement": "IGROV-I Percentage of specific ^51Cr release", "setting": "[3]; [6]", "value": "51.6 ± 9.3", "unit": "%"},
      {"measurement": "IGROV-I Percentage of ^51Cr release", "setting": "[3]; [7]", "value": "65.2 ± 1.2", "unit": "%"},
      {"measurement": "IGROV-I Percentage of specific ^51Cr release", "setting": "[3]; [7]", "value": "41.2 ± 5.3", "unit": "%"},
      {"measurement": "IGROV-I Percentage of ^51Cr release", "setting": "[3]; Patient 2 PBMCs, T:E ratio 1:0", "value": "−10.9 ± 0.2", "unit": "%"},
      {"measurement": "IGROV-I Percentage of specific ^51Cr release", "setting": "[3]; Patient 2 PBMCs, T:E ratio 1:0", "value": "2.4 ± 0.5", "unit": "%"},
      {"measurement": "IGROV-I Percentage of ^51Cr release", "setting": "[3]; [8]", "value": "46.0 ± 1.2", "unit": "%"},
      {"measurement": "IGROV-I Percentage of specific ^51Cr release", "setting": "[3]; [8]", "value": "30.4 ± 4.1", "unit": "%"},
      {"measurement": "IGROV-I Percentage of ^51Cr release", "setting": "[3]; [9]", "value": "64.7 ± 1.3", "unit": "%"},
      {"measurement": "IGROV-I Percentage of specific ^51Cr release", "setting": "[3]; [9]", "value": "41.7 ± 1.9", "unit": "%"},
      {"measurement": "IGROV-I Percentage of ^51Cr release", "setting": "[3]; [10]", "value": "67.8 ± 10.5", "unit": "%"},
      {"measurement": "IGROV-I Percentage of specific ^51Cr release", "setting": "[3]; [10]", "value": "31.0 ± 12.9", "unit": "%"}
    ]}
  ]
}
